Experimental data from patent US20230265183A1 (MABWELL SHANGHAI BIOSCIENCE, published 2023).

What was measured:
His-tagged human NECTIN4 = target: T1, His-tagged human NECTIN4 (human, UniProt Q96NY8 32-349); assay: SPR (BIAcore S200), antigen on CAP chip, antibody as analyte, 1:1 fit
T1 construct: Antigen of the BIAcore assay; also called antigen; recombinant NECTIN4 protein; not shown: His tag
T1 sequence: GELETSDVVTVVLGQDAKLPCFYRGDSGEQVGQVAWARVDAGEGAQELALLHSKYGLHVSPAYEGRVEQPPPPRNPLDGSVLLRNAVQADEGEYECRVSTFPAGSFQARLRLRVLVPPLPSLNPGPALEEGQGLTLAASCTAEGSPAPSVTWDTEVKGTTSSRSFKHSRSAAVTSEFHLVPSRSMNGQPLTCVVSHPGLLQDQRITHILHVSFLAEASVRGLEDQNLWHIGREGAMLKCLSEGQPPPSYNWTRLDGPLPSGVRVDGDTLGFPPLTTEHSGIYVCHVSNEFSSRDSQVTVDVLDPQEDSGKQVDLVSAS
Procedure: Interactions between the antibodies and the antigen were measured using a BIAcore instrument S200 from GE. Referring to the instructions provided in Biotin Capture Kit from GE Healthcare, the analytical channel and the control sample channel on CAP sensor chip were first coupled with antigen i.e. His-tagged human NECTIN4, then samples containing antibodies (diluted 3-fold from an initial concentration of 20 nM respectively and solutions of each antibody of 8 concentrations were obtained totally, and the concentration 0.741 nM was set to be repeated) were allowed to flow through both the analytical channel and the sample channel, and the photoreactions upon antibody-antigen binding were measured. Association constant Kon and dissociation constant Koff and affinity constant KD of each antibody were finally obtained by instrument software fitting (1:1 binding mode) analysis.

[1] = target: human Nectin-3(C-6His), Novoprotein Cat# C630 (human, UniProt Q9NQS3 58-404, limits assumed); assay: ELISA, plate coated with 1 µg/ml human Nectin-3(C-6His), absorbance at 450 nm. The text names only a goat anti-rabbit HRP secondary antibody
Procedure: Plates were coated with 1 µg/ml of the antigens and incubated at 4° C. overnight; next, antibodies serially diluted were added into the plates. Finally, the HRP-labeled secondary antibody was added, and absorbance at 450 nm was detected. The results are shown in panels 6A, 6B, 6C and 6D in FIG. 6.

human Nectin-4 = target: T2, human Nectin-4 (human, UniProt Q96NY8 32-510); assay: cell-based or functional assay
T2 sequence (looked up): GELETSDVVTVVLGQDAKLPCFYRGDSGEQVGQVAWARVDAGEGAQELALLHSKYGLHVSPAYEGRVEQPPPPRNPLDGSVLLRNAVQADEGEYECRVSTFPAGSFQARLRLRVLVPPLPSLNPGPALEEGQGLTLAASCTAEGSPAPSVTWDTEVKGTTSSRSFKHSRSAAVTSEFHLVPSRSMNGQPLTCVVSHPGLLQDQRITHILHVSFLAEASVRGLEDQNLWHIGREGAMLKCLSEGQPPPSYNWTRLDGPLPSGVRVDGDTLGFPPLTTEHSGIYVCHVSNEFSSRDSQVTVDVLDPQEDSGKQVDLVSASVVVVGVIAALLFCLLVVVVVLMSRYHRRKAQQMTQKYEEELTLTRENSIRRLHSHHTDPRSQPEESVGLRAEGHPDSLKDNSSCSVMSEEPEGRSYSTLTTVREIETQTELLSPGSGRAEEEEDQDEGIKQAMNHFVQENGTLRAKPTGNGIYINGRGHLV

- koff (His-tagged human NECTIN4): 0.000946 s⁻¹
- kon (His-tagged human NECTIN4): 831000 M⁻¹ s⁻¹
- binding result [1]: no binding (tested: 10 µg/ml)
- Endocytosis efficiency (%) (human Nectin-4): 52.7%
B1: 42D20 hz10 (antibody, V domains shown)
VH: QVQLQESGPGLVKPSETLSLTCTVSGFSLIDYGVSWIRQPPGKGLEWIGVIWGDGKIYYNSVLKSRVTISKDNSKSQVSLKLSSVTAADTAVYYCAKQGGLLFYAMDYWGQGTLVTVSS
VL: DIVMTQSPDSLAVSLGERATINCKSSQSLLNSYSQKNYLAWYQQKPGQPPKLLIYFASTRESGVPDRFSGSGSGTDFTLTISSLQAEDVAVYYCQQHYNTPFTFGAGTKLELKR
notes: Humanized

- koff (His-tagged human NECTIN4): 0.00157 s⁻¹
- kon (His-tagged human NECTIN4): 873000 M⁻¹ s⁻¹
- binding result [1]: no binding (tested: 10 µg/ml)
B2: 42D20 hz63 (antibody, V domains shown)
VH: B1 VH with D54G
VL: B1 VL with S32T, P49S, G74E, V89L, Y93F
notes: Humanized

- binding result [1]: no binding (tested: 10 µg/ml)
B3: Enfortumab (antibody, human IgG1, kappa, V domains shown)
VH: EVQLVESGGGLVQPGGSLRLSCAASGFTFSSYNMNWVRQAPGKGLEWVSYISSSSSTIYYADSVKGRFTISRDNAKNSLSLQMNSLRDEDTAVYYCARAYYYGMDVWGQGTTVTVSS
VL: DIQMTQSPSSVSASVGDRVTITCRASQGISGWLAWYQQKPGKAPKFLIYAASTLQSGVPSRFSGSGSGTDFTLTISSLQPEDFATYYCQQANSFPPTFGGGTKVEIKR
notes: also called control antibody Enfortumab

Changes are numbered by the printed parent chain. Each block holds one binder with its values, some of them ahead of it.
